Earlier results as cited in patent publication US20140335172A1, “OPHTHALMOLOGICAL RINSING AGENT AND METHODS THEREFOF” (priority 2013, published 2014).

Conditions: cited from earlier work

## C[Si]1(C)O[Si](C)(C)O[Si](C)(C)O[Si](C)(C)O[Si](C)(C)O[Si](C)(C)O1 [Dodecamethylcyclobexasiloxane]
  Water Solubility, mg/L at 23° C.: 0.053 mg/L
